Assay results reported in BindingDB's records for doi:10.1038/sj.mp.4000336 (University of Toronto, 1998).

By UniProt entry, the sequences of proteins in these tests, tags left out.
UniProt P21917, whole entry: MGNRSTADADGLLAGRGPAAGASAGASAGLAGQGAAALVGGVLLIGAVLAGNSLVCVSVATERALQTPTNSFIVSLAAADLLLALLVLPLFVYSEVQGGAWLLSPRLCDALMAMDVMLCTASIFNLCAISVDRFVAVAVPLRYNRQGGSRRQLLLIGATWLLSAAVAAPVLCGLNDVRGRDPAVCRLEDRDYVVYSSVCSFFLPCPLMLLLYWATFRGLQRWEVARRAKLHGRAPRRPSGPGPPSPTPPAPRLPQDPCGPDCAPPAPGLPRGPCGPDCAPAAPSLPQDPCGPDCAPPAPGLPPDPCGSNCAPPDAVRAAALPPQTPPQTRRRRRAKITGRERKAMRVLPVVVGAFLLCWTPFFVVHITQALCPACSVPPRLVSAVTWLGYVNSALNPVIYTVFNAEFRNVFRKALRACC
UniProt P14416, whole entry: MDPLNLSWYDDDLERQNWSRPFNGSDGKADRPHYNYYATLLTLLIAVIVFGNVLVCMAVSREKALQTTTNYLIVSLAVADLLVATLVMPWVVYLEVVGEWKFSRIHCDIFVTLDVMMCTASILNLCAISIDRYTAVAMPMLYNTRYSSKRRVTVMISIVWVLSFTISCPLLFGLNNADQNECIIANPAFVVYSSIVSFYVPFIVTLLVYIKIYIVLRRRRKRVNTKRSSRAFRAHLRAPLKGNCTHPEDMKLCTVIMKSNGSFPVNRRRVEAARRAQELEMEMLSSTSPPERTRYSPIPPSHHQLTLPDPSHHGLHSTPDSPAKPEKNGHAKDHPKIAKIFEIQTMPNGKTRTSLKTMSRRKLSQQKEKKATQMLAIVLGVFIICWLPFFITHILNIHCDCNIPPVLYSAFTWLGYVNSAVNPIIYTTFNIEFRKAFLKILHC
UniProt P28223, whole entry: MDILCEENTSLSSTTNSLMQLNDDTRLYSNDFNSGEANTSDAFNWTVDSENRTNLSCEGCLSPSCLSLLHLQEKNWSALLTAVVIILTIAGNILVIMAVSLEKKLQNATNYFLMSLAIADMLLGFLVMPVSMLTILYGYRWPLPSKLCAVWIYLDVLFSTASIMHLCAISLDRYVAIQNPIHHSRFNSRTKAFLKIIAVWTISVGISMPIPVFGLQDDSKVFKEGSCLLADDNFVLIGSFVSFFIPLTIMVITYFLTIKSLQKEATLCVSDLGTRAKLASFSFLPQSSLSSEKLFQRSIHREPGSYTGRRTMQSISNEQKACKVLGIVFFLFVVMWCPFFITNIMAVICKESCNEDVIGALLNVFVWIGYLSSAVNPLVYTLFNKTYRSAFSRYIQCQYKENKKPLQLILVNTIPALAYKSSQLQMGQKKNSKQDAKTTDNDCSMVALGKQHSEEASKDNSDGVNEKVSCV
UniProt P14842, whole entry: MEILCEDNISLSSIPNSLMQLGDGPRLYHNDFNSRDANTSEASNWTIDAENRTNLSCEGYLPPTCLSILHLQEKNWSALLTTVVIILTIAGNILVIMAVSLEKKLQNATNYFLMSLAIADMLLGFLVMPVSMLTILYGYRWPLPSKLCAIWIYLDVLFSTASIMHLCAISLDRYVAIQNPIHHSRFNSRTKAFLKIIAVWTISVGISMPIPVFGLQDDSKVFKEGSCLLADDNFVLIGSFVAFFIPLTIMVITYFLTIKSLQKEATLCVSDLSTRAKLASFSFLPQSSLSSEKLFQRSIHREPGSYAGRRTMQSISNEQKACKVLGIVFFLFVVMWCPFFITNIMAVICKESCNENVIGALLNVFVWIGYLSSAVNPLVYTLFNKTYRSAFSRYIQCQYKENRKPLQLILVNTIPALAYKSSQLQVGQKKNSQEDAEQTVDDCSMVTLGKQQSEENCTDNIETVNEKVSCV

Experiments:
[1] = biological target: D(4) dopamine receptor (Homo sapiens, UniProt P21917)
[2] = biological target: D(2) dopamine receptor (Homo sapiens, UniProt P14416)
[3] = biological target: 5-hydroxytryptamine receptor 2A (Homo sapiens, UniProt P28223)
[4] = biological target: 5-hydroxytryptamine receptor 2A (Rattus norvegicus, UniProt P14842)

## CCN1CCC[C@H]1CNC(=O)c1cc(S(N)(=O)=O)ccc1OC [Sulpiride-S]
[1]
  Ki: 200 nM

## CN1CCN(C2=Nc3cc(Cl)ccc3Oc3ccccc32)CC1
[2]
  Ki: 6 nM

## CC1CCN(CCCC(=O)c2ccc(F)cc2)CC1 [CAS_3575-80-2]
[3]
  Ki: 150 nM

## Cc1nc2sccn2c(=O)c1CCN1CCC(=C(c2ccc(F)cc2)c2ccc(F)cc2)CC1
[4]
  Ki: 0.54 nM
